Test results reported in ChEMBL document CHEMBL1909518, “Small molecule receptor protein tyrosine phosphatase γ (RPTPγ) ligands that inhibit phosphatase activity via perturbation of the tryptophan-proline-aspartate (WPD) loop” (J Med Chem, 2011).

Assays:
[1] = target: T1, Receptor-type tyrosine-protein phosphatase gamma (Homo sapiens, UniProt P23470); assay: Inhibition of RPTPgamma expressed in Escherichia coli BL21 (DE3) assessed as reduction in dephosphorylation of Z'-Lyte phospho-Tyr 1 peptide preincubated for 40 mins by FRET assay
T1 sequence (P23470 whole entry): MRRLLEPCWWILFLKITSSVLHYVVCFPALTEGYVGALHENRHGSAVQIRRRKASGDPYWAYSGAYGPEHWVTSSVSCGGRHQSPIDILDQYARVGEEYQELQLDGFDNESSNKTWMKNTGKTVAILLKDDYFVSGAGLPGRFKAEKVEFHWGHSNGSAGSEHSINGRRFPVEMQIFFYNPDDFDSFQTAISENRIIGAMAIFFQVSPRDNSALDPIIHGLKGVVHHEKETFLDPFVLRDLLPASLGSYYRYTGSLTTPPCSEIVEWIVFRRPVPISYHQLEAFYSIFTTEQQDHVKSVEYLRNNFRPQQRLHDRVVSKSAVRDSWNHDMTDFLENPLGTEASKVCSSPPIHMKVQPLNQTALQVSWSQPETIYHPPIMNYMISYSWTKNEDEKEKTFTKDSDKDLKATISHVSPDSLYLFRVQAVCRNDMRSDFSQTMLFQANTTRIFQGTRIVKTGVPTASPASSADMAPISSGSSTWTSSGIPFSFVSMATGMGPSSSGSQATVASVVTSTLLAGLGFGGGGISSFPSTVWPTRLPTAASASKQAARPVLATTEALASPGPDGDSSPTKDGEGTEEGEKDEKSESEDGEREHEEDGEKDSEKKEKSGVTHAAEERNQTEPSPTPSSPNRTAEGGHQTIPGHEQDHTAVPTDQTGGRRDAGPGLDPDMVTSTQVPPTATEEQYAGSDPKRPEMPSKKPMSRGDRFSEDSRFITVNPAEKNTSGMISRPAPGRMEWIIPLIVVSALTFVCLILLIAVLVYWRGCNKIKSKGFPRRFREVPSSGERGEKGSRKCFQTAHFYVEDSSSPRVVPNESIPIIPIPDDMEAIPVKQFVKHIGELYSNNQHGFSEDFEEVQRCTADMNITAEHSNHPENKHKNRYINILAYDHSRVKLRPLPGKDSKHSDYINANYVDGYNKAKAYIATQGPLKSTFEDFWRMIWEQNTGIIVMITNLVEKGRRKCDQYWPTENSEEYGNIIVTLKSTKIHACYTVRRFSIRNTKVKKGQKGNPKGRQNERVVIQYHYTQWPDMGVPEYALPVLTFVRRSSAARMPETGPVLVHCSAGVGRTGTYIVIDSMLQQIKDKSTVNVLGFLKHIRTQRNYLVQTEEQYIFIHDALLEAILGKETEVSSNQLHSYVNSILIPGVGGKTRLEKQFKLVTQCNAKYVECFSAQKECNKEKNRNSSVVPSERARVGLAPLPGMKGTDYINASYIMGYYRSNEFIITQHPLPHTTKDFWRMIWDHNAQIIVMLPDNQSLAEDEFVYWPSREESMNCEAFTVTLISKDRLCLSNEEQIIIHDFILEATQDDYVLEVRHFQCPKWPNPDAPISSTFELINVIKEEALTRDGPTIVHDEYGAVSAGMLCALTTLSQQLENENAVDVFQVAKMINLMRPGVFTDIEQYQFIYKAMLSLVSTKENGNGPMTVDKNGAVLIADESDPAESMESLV

[2] = target: T1, Receptor-type tyrosine-protein phosphatase gamma; assay: Inhibition of RPTPgamma expressed in Escherichia coli BL21 (DE3) assessed as reduction in dephosphorylation of Z'-Lyte phospho-Tyr 1 peptide preincubated for 20 mins by FRET assay
[3] = target: T1, Receptor-type tyrosine-protein phosphatase gamma; assay: Inhibition of RPTPgamma expressed in Escherichia coli BL21 (DE3) assessed as reduction in dephosphorylation of Z'-Lyte phospho-Tyr 1 peptide preincubated for 20 mins by Lineweaver-Burk plot

O=C(O)c1sccc1SCc1ccc(Cl)c(Cl)c1
IC50 [1]: 2500 nM
IC50 [2]: 2600 nM
Ki [3]: 2500 nM
